Test system: RBCs
Method: The release of hemoglobin from the RBCs is considered as a sign of disrupting the cell membrane and consequently extracting the inner leaflet.
The hemolysis of RBCs during lipid exchange was measured using UV-Vis spectroscopy.
Presence of hemoglobin in the exchange solution is believed to be a disruption of the RBCs, lead to extracting the inner leaflet of the membrane. To monitor the amount of hemolysis after the exchange, the cells were centrifuged at 750×g for 5 minutes, 200 μL of the supernatant was collected, and its absorbance at 541 nm was measured using a plate reader. RBCs suspended in DPBS and water for 1 hour, at the same hematocrit concentrations as the ones used for exchange experiments, were used as negative and positive controls for the hemolysis. Both controls were also centrifuged at 750×g for 5 minutes.

brain SM [bSM]
hemolysis of RBCs during lipid exchange: lowest hemolysis

— US20230172189A1, “Methods for Extending the Shelf-life of Stored Donor Blood and/or Red Blood Cells and Treated Red Blood Cell Compositions Produced Thereby” (Ohio University, priority 2020, published 2023)
